Measured values taken from US5266600A, “BU-4641V, an antibacterial, antiviral and antitumor antibiotic” (priority 1992, dated 1993).
≈ marks a conversion by molar mass, not a printed value.

How the values were obtained:
S. aureus FDA 209P = details: Nutrient agar, pH 7.0, 32° C., 18 hrs, 10^5 cells/ml

CC1=CCC2(C)C(=O)C(O)=C(C(C)CO)C2CC=C(C)C(O)CCC(C)=CCC1 (stereo not drawn) [BU-4641V]
MIC (M. morganii 1510): > 100 µg/mL
MIC (E. cloacae IPM-12): > 100 µg/mL
MIC (X. maltophilia No. 661): > 100 µg/mL
MIC (C. terrigena IFO 12685): 12.5 µg/mL (≈ 31.1 µM)
MIC (E. faecalis A9808): 100 µg/mL (≈ 248 µM)
MIC (P. cepacia No. 651): > 100 µg/mL
MIC (P. vulgaris IPM-13): > 100 µg/mL
MIC (P. aeruginosa IPM-8): > 100 µg/mL
MIC (C. freundii GN7391): > 100 µg/mL
MIC (P. cepacia A21213): > 100 µg/mL
MIC (B. subtilis PCI 219): 100 µg/mL (≈ 248 µM)
MIC (S. marcescens IPM-16): > 100 µg/mL
MIC (P. mirabilis IFO 3849): > 100 µg/mL
MIC (P. aeruginosa A20599): > 100 µg/mL
MIC (M. morganii 1510/9): > 100 µg/mL
MIC (E. coli Juhl A15119): > 100 µg/mL
MIC (K. pneumoniae PCI 602): > 100 µg/mL
MIC (P. aeruginosa IpM-9): > 100 µg/mL
MIC (S. epidermidis 11-1168): 50 µg/mL (≈ 124 µM)
MIC (E. faecium A24817): 100 µg/mL (≈ 248 µM)
MIC (S. marcescens IPM-15): > 100 µg/mL
MIC (E. coli 255): > 100 µg/mL
MIC (S. aureus IPM-24 (MRSA)): 100 µg/mL (≈ 248 µM)
MIC (P. aeruginosa KKA19): > 100 µg/mL
MIC (M. luteus PCI 1001): 100 µg/mL (≈ 248 µM)
MIC (X. maltophilia GN12873): > 100 µg/mL
MIC (S. epidermidis 11-1230): 100 µg/mL (≈ 248 µM)
MIC (P. rettgeri IPM-14): > 100 µg/mL
MIC (S. aureus Smith): 100 µg/mL (≈ 248 µM)
MIC (S. aureus FDA 209P): 25 µg/mL (≈ 62.1 µM)
